This is an account of results in US20030157670A1 (priority 2002, published 2003).

The assay relates to capsaicin decomposing/synthesizing enzyme (purified enzyme from Streptomyces mobaraensis IFO13819). As to the kind of experiment: Synthesis of capsaicin analogs from vanillylamine and fatty acids with the enzyme of the invention. It counts as biochemical. Conditions: vanillylamine and various saturated fatty acids; in words.

In the case of `CCCCCCCCCCCC(=O)O` [Lauric acid], the “synthesis reactivity among saturated fatty acids as substrates” value was “highest”.
